## Yeast mating assay 2: variants of the scFv Ab-91

Values reported by Engelhart et al. 2022, doi:10.1038/s41597-022-01779-4 (FLAb copy).

All variants were tested on one target, the spike HR2 peptide PDVDLGDISGINAS (SARS-CoV-2).

Each scFv is VL, a (GGGGS)3 linker, VH, as in the parent Ab-91, and differs from it in the CDRs of the heavy chain only.
VL: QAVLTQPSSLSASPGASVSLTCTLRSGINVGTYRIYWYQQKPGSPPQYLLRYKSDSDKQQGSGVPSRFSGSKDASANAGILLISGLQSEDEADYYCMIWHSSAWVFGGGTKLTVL
VH: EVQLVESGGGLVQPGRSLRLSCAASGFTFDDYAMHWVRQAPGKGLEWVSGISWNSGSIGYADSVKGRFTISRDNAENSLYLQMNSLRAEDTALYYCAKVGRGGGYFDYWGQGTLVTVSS

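The parent was found by panning a naive human phage display library on the peptide. AAYL51 was designed without a model: most single CDR substitutions and a random sample of double and triple ones. The scFvs were displayed on barcoded MATa yeast, the peptide on MATalpha yeast. Binding brings cells together so that they mate, and sequencing counts the barcode pairs among the diploids. Each replicate has its own calibration line, from reference interactions of the BCL2 family. Each pool was mated in three replicate cultures.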

Variants are written as CDR1, CDR2 and CDR3 of the heavy chain (limits as in the source). Parent: GFTFDDYAMH, GISWNSGSIGYADSVK, VGRGGGYFDY.
Numbers give log10(Kd / nM), so 0 is 1 nM and 3 is 1 µM. Smaller is tighter.
A mean of the replicates is given; it leaves out those without a signal.
A pair that was not seen in that replicate is written "ND"; this usually means weak binding, but a binder can also be missed.
Nonspecific signal, from three strains lacking the peptide, appeared in 21% of pairings of library AAYL51, centred on 4.54 (5% of these signals below 3.26); values are not corrected for it. The control count says in how many pairings with the empty strains this scFv gave a signal, with their mean in brackets.

CDR-H1	CDR-H2	CDR-H3	replicates, log10 nM	mean log10 Kd (nM)	control signals
GFTFDDYAMH	GISWNSGIIGYADSHK	VGRGGGYFDY	4.30 / 4.63 / 4.57	4.50	7 of 9 (4.88)
GFTFDDYVML	GISWNSGSIGYADSHK	VGRGGGYFDY	ND / ND / ND	ND	0 of 9
GFTFDDYAMH	GISRNSGSIGYADSVK	VGRGGGYVDK	3.79 / 3.65 / 3.69	3.71	3 of 9 (3.80)
GFTFDDYAMH	WYSWNSGSIGYADSLK	VGRGGGYFDY	5.20 / ND / ND	5.20	0 of 9
GFTFDDYAMH	GISWPGGSIGYADSVK	VGRGGGYFFY	ND / ND / ND	ND	0 of 9
KFTFDDYAMH	GILWNMGSIGYADSVK	VGRGGGYFDY	5.28 / 4.86 / 4.55	4.90	6 of 9 (4.99)
GFTFYDYAMH	GISWNSGSEGYADSVP	VGRGGGYFDY	ND / ND / ND	ND	1 of 9 (3.88)
GFTFDDYAMH	GISWNSGSIGYANSVK	VGRGGGYPDF	ND / ND / 5.15	5.15	4 of 9 (4.74)
GFTFDDHAMH	GISWQSGSIGYADSVK	VGRGGGCFDY	ND / ND / ND	ND	4 of 9 (4.31)
GFFFDDYAMH	GIHWNMGSIGYADSVK	VGRGGGYFDY	4.58 / ND / 3.69	4.14	2 of 9 (4.98)
GFTFDDYAMH	TISWNSGSIGYADSVG	VGRGGGCFDY	4.31 / ND / 4.40	4.36	6 of 9 (4.96)
GFTFDQYAMH	GISWTSGSGGYADSVK	VGRGGGYFDY	3.91 / ND / ND	3.91	2 of 9 (4.84)
GFTFPAYAMH	GISWNSGSIGYADSVK	VGRGGGYFDF	0.20 / 0.34 / -0.46	0.03	3 of 9 (3.56)
GFTFDDYAMH	GISWNSGSIGYADSVK	VGRDGECFDY	5.14 / ND / ND	5.14	5 of 9 (5.42)
GFYFDDYAMD	GISWNSCSIGYADSVK	VGRGGGYFDY	6.05 / 6.36 / ND	6.20	3 of 9 (5.31)
GFTFDYYAMH	GISWNSGSLGYADSVK	VGRGGGYIDY	5.43 / ND / ND	5.43	2 of 9 (3.94)
GFTFDDYAMH	GISWNDGSIGYADSVK	VGRGGGYFDY	ND / 3.28 / ND	3.28	0 of 9
GFTFDDYAMH	GISWNSESIGYADSVK	VARGGRYFDY	3.91 / ND / ND	3.91	0 of 9
IFTFDDYAMH	GISWNSGPIGYADSVK	WGRGGGYFDY	ND / ND / ND	ND	0 of 9
GFTFDDYAMH	GISINSGSIGDADSVK	VGRGKGYFDY	ND / ND / ND	ND	0 of 9
GFTFDDYAMH	GISWNHGSIGYADSVK	VGRGWGRFDY	3.72 / ND / ND	3.72	4 of 9 (3.89)
GFTFDDQAMH	GISANSGSIGYADSVK	VGRGGGRFDY	ND / 4.61 / ND	4.61	1 of 9 (3.63)
GLTFDDYAMH	GISWNSGSIGYADSVK	VGRGGGYFDY	3.26 / 4.27 / 2.96	3.49	3 of 9 (4.60)
GFTFKDYAMH	GISWNSGSEGYADSVK	VGRCGGYFDY	1.92 / 1.53 / 1.22	1.56	1 of 9 (2.65)
GFTFDWYAMH	GISWNSGSISYAGSVK	VGRGGGYFDY	3.31 / ND / ND	3.31	0 of 9
GFTFDDYAMH	GIHWNSGSIGKADSVK	VGRGGGYFDY	ND / ND / ND	ND	0 of 9
GFTFDDYAMH	GISWNSGSIGYADSVK	VGRGIGPFDT	4.17 / ND / ND	4.17	2 of 9 (4.24)
GMRFDDYAMH	GISWNSNSIGYADSVK	VGRGGGYFDY	ND / ND / 5.49	5.49	4 of 9 (4.19)
GFTQDDYAMH	GISWNSGNIGYADSVK	VGRGGGKFDY	ND / 4.97 / ND	4.97	1 of 9 (3.65)
GFTFDDYAMH	GISWNSGSIGYADSVK	VGRGGGHFNP	4.72 / 6.37 / ND	5.55	2 of 9 (4.91)
GFFFDDYAMH	GISWNSGSIGYADSVK	VSRFGGYFDY	4.74 / 5.83 / ND	5.28	1 of 9 (3.69)
GFTFDDYTMH	GISWNSGSIGYADSVK	VGRGQGYFMY	5.15 / 3.76 / 4.71	4.54	1 of 9 (5.12)
GFTFDDYAMH	GISWNSGSIGYADGVT	VGRGGGWFDY	2.94 / ND / ND	2.94	1 of 9 (3.07)
GFTFDDYAMH	GISWNSRSIGYADSVK	GERGGGYFDY	ND / ND / 3.58	3.58	1 of 9 (3.70)
GFTFDLYAMH	GISWNSGSIGYADSVK	VGRGGGYGLY	ND / 4.68 / 3.72	4.20	3 of 9 (5.35)
GFCFDDYAMH	GISYNSGSIGYADSVK	VGRGGGYFDY	0.96 / 1.05 / 0.49	0.84	5 of 9 (5.29)
GFTFDDYAMH	GISWNSGSIGYADSVK	VGTGGGYYHY	ND / ND / ND	ND	0 of 9
GFTFDDEAMH	GISWNSGSIHYADSVK	VGRGGGYSDY	5.90 / ND / 4.36	5.13	4 of 9 (4.26)
GFTFDDYAMH	GISWNSGSIGMADSVK	VQRGGGNFDY	ND / 6.48 / ND	6.48	5 of 9 (4.83)
EDTFDDYAMH	GISWHSGSIGYADSVK	VGRGGGYFDY	ND / ND / ND	ND	0 of 9
GFTFDDYAMH	GISRFSGIIGYADSVK	VGRGGGYFDY	3.68 / ND / ND	3.68	2 of 9 (4.06)
DFTFDDYAMD	GISWNSGSIGYAFSVK	VGRGGGYFDY	ND / ND / ND	ND	3 of 9 (3.40)
HFTFDDYWMH	GISWNSHSIGYADSVK	VGRGGGYFDY	ND / ND / 3.28	3.28	0 of 9
GFTFDDYAML	GISWNSGNIGYADSWK	VGRGGGYFDY	4.53 / ND / ND	4.53	0 of 9
GFTFDDYAMH	GISWNSPSIGYADSFK	VGRGGGYFWY	ND / ND / 4.03	4.03	0 of 9
GFTFLDYAMH	GISWNSGSIGYADSVK	IGRGGGTFDY	3.94 / ND / ND	3.94	2 of 9 (3.79)
GFTFDDYAMH	GISWNSGSIVYADSVK	VGWGGCYFDY	3.23 / ND / ND	3.23	0 of 9
GFTFDDYAMH	GISWNSGSIGYADCVK	VGRGGGYDSY	0.73 / 0.69 / 0.65	0.69	0 of 9
GFTQDDYAMH	GISWNSGSIGYADSVK	VGRGGGDFHY	4.90 / ND / ND	4.90	3 of 9 (4.34)

8 of these entries, quoted again:

| CDR-H1 | CDR-H2 | CDR-H3 | replicates, log10 nM | mean log10 Kd (nM) | control signals |
|---|---|---|---|---|---|
| GFTFDDYAMH | GISWNSGSIGYADCVK | VGRGGGYDSY | 0.73 / 0.69 / 0.65 | 0.69 | 0 of 9 |
| GFTFDDYTMH | GISWNSGSIGYADSVK | VGRGQGYFMY | 5.15 / 3.76 / 4.71 | 4.54 | 1 of 9 (5.12) |
| GFTFDQYAMH | GISWTSGSGGYADSVK | VGRGGGYFDY | 3.91 / ND / ND | 3.91 | 2 of 9 (4.84) |
| GFTFDDYAMH | GISWPGGSIGYADSVK | VGRGGGYFFY | ND / ND / ND | ND | 0 of 9 |
| GFTFDDYAMH | GISWNSPSIGYADSFK | VGRGGGYFWY | ND / ND / 4.03 | 4.03 | 0 of 9 |
| GFTFDDYAMH | TISWNSGSIGYADSVG | VGRGGGCFDY | 4.31 / ND / 4.40 | 4.36 | 6 of 9 (4.96) |
| GFCFDDYAMH | GISYNSGSIGYADSVK | VGRGGGYFDY | 0.96 / 1.05 / 0.49 | 0.84 | 5 of 9 (5.29) |
| GFTFDDYAML | GISWNSGNIGYADSWK | VGRGGGYFDY | 4.53 / ND / ND | 4.53 | 0 of 9 |

For reference, the parent read 1.86 as the reference entry and 0.88 as a member of this library.